According to BindingDB's records for doi:10.1021/jm00008a008 (Arris Pharmaceutical, 1995):

Assay: Tested for activity against 5-hydroxytryptamine 1A receptor from bovine hippocampus

CCCN1CC[C@H]2c3c(O)cccc3CC[C@@H]21 [(3aS,9bS)-3-Propyl-2,3,3a,4,5,9b-hexahydro-1H-benzo[e]indol-9-ol]
Ki: 0.1 nM
